Results taken from PubChem BioAssay AID1053197 (The Scripps Research Institute Molecular Screening Center, 2014).
The entries are a selection whose mix differs from that of the whole data set. Activity calls are given as the source filed them.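 The calls were made as follows: active = inhibition above a cutoff: mean of compounds within the control limits plus 3 SD of those (cut at about 17% in these data); inactive = the rest.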

By UniProt entry, the sequences of proteins in these tests, tags left out.
UniProt Q9HAT2, whole entry: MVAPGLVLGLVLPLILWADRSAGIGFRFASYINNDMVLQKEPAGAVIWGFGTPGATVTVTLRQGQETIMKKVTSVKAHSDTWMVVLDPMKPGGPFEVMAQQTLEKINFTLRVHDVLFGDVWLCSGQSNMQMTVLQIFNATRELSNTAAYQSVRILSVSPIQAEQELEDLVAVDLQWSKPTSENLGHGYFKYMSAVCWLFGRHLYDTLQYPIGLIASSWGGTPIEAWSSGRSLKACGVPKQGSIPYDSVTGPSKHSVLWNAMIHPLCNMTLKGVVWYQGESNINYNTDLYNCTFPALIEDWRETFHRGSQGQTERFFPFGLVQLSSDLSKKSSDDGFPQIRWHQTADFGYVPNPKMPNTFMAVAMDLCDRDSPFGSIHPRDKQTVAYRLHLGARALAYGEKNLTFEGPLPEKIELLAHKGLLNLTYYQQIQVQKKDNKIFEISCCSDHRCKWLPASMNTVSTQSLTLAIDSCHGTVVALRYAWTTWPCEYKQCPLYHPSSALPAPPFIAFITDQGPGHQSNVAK

target: Sialate O-acetylesterase (Homo sapiens) (UniProt Q9HAT2); experiment: blockers of sialate O-acetylesterase activity-probe labeling – biochemical, fluorescence polarization, FP-Rh probe, 1536-well HTS, primary screen (AID 1053197); conditions: SIAE FP-Rh probe binding, at 9.66 µM, hits give high values;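 also: 0% = plate median of compound wells and 100% = probe without SIAE protein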

Structure (SMILES)	inhibition
CCC(=O)N(c1ccccc1)C1(COC)CCN(CCc2cccs2)CC1	inactive: -3.16%
CCC(=O)N(c1ccccc1)C1(COC)CCN(CCn2nnn(CC)c2=O)CC1	inactive: 3.38%
